Target: anabolic plant HPPD (p-hydroxyphenylpyruvate dioxygenase) from maize (Zea mays, UniProt A0A1D6H1G0)
Format: biochemical
Method: A modified form of the method for measuring catabolic HPPDs from human liver has been described by Lindblad (Lindblad, B. (1971) Clin. Chim. Acta 34, 113-121). End-point measurements are used in this case for detecting ^14C—CO2, which is liberated from ^14C-p-hydroxyphenylpyruvate by the enzymatic activity of HPPD.
To enrich the anabolic HPPD from plant tissues, young etiolated maize plants were homogenized in extraction buffer (20 mM phosphate buffer pH 7.0; 0.14 M KCl; 0.1 mg/ml glutathione and 1% insoluble polyvinylpyrrolidone) for 3×10 seconds, for example in a Waring blender. The extract was filtered (all other isolation steps were carried out at 4° C.) and centrifuged (20 minutes; 10,000 g). The supernatant was subjected to fractional ammonium sulfate precipitation. […] At this stage, it was possible to store the enzyme at −80° C. following dialysis in a suitable buffer, such as, for example, 20 mM phosphate buffer pH 7.0; 0.14 M KCl; 0.1 mg/ml glutathione.
The enzyme assays were performed in 20 ml polyethylene screw-top containers. […]
After preincubation for 5 minutes at 30° C., the reaction was started by injecting 800 μl of ^14C-p-hydroxyphenylpyruvate. The reaction was stopped by injecting 600 μl of 1 N H2SO4, incubation was continued for 15 minutes, and the radioactivity which was liberated was determined on the small filter paper disks in a liquid scintillation counter. […]

Chains of the proteins cited; added tags and fusions are not shown.
UniProt A0A1D6H1G0, entry or part of it: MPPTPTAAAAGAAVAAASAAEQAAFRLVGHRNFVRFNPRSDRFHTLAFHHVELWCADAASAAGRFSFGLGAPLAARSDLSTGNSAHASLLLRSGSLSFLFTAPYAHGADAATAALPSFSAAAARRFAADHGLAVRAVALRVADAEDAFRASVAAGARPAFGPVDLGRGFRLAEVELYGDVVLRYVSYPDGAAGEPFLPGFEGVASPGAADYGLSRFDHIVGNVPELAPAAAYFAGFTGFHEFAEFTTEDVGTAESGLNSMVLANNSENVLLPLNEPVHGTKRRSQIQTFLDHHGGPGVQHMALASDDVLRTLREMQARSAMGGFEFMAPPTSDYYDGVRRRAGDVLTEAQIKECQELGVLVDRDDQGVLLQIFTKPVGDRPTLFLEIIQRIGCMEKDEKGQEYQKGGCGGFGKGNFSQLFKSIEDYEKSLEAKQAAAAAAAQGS

In the case of `CS(=O)(=O)c1ccc(C(=O)C2C(=O)CCCC2=O)c(Cl)c1` [SC-0051, 2-(2-chloro-4-methanesulfonylbenzoyl)-1,3-cyclohexanedione], the “Inhibition of HPPD (in words)” value (partially purified maize HPPD, FIG. 2) is reported as “marked inhibition” and the IC50 (read-out: 50% inhibition on the anabolic plant HPPD from maize (IC50 value), under the assay conditions) is reported as 45 nM.

— patent publication US6555714B1, “Inhibitors of hydroxyphenylpyruvate dioxygenase and an assay for identification of inhibitors” (Hoechst Aktiengesellschaft, priority 1993, dated 2003)
